Values of other authors in article PMC11215778 (Journal of Medicinal Chemistry, 2024).

Legend:
Settings in all cases: cited from earlier work
ADRA1B = target: ADRA1B
5-HT1B = target: 5-HT1B
ADRA1D = target: ADRA1D

COC(=O)[C@@H]1[C@H]2C[C@H]3c4[nH]c5ccccc5c4CCN3C[C@@H]2CC[C@@H]1O [Compound 1, Yohimbine, reference compound]
6.8: ADRA1B pKi (ADRA1B) | 5-HT1B pKi (5-HT1B) | ADRA1D pKi (ADRA1D)
